Test results taken from US5328927A, “Hetercyclic compounds, processes for their preparation and pharmaceutical compositions containing them” (Merck Sharpe & Dohme, Ltd., priority 1992, dated 1994).
Where a name gives a salt, the structure may show the parent alone.

Protein sequences, listed by entry. Tags and fused reporters are not part of them.
UniProt P25103, whole entry: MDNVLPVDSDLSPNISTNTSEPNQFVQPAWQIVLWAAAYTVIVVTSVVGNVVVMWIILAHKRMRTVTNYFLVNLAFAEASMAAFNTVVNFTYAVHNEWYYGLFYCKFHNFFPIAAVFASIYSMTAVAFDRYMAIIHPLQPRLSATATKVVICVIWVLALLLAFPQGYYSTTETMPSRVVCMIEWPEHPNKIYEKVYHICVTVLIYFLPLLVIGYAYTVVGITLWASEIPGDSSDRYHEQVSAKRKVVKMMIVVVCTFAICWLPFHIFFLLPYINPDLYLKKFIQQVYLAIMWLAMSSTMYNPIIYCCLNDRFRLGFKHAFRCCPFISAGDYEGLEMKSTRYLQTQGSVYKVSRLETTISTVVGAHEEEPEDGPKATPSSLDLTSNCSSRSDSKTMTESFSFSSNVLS

Target: human neurokinin-1-receptor (NK1R) (Homo sapiens, UniProt P25103)
Experiment: biochemical
Conditions: 125I-SP binding; cloned human NK1R expressed in COS or CHO; 1 hour at 4° C. or room temperature

IC50 [nM]	SMILES
200	CC(=O)NC(Cc1c[nH]c2ccccc12)C(=O)C=Cc1cc(C(F)(F)F)cc(C(F)(F)F)c1 (stereo not shown) [Example 7, 2-Acetamido-5-(3,5-bistrifluoromethylphenyl)-1-(3-indolyl)-4-penten-3-one]
3	CC(=O)NC(Cc1c[nH]c2ccccc12)C(=O)CCc1cc(C(F)(F)F)cc(C(F)(F)F)c1 (stereo not shown) [Example 8, 2-Acetamido-5-(3,5-bistrifluoromethylphenyl)-1-(3-indolyl)-3-pentanone]
10	CN(C)CC(=O)NC(Cc1c[nH]c2ccccc12)C(=O)CCc1cc(C(F)(F)F)cc(C(F)(F)F)c1 (stereo not shown) [Example 12, 5-(3,5-Bistrifluoromethylphenyl)-2-(N,N-dimethylglycinamido)-1-(3-indolyl)-3-pentanone Hydrochloride]
2	CN(C)CCC(=O)NC(Cc1c[nH]c2ccccc12)C(=O)CCc1cc(C(F)(F)F)cc(C(F)(F)F)c1 (stereo not shown) [Example 16, 5-(3,5-Bistrifluoromethylphenyl)-2-(3-N,N-dimethylaminopropionamide)-1-(3-indolyl)-3-pentanone Hydrochloride]
